One compound from US10570116B2, “1,4-dicarbonyl-piperidyl derivatives” (Merck Patent GmbH, priority 2015, dated 2020) can be followed below.

In this assay the test system is Tankyrases. Kind of assay: Measurement of cellular inhibition of Tankyrase (Axin2 level, Luminex based assay, DLD1 cells). The following applies: increase of Axin2 level, 24 hours, read-out: EC50 [M] TNKS cellular assay. Format: cell-based.

For the compound `Cn1cc(C(=O)C2CCN(C(=O)COCc3nc4c(F)cc(F)cc4c(=O)[nH]3)CC2)cn1` [Compound C27, 6,8-Difluoro-2-{2-[4-(1-methyl-1H-pyrazole-4-carbonyl)-piperidin-1-yl]-2-oxo-ethoxymethyl}-3H-quinazolin-4-one], the EC50 (in general, the concentration needed to bring the measured effect to its halfway point) amounted to 2.4e-07 M.
